Results: US11220482B2, “Aminopyridinemethanol compounds and their use” (UNIVERSITE AMIENS PICARDIE JULES VERNE, priority 2017, dated 2022)

Columns and labels:
CHO-K1 cells [1] = test: In vitro micronucleus assay, short-term exposure; conditions: without S9 mix, positive control 0.6 μg/mL
CHO-K1 cells [2] = system: CHO-K1 cells
CHO-K1 cells [3] = system: CHO-K1 cells; remark: listed apart in the source
CHO-K1 cells [4] = test: In vitro micronucleus assay, long-term exposure; conditions: long-term (24 h), without S9 mix, positive control 0.6 μg/mL

## CO[C@@]12[C@H](COC(N)=O)C3=C(C(=O)C(C)=C(N)C3=O)N1C[C@@H]1N[C@@H]12 [Mitomycin C, mitomycin C]
CHO-K1 cells [1]
  BI (binucleated cells): 452
  MNC2 (micronucleated cell rate): 32 ‰
  MNC-M (mean of micronucleated cell rates): 30 ± 2.8 ‰
  MONO (mononucleated cells): 48
CHO-K1 cells [2]
  MNC1 (micronucleated cell rate): 28 ‰
  MNC2 (micronucleated cell rate): 32 ‰
CHO-K1 cells [3]
  MNC1 (micronucleated cell rate): 28 ‰
  MNC2 (micronucleated cell rate): 32 ‰
  MNC-M (mean of micronucleated cell rates): 30 ± 2.8 ‰
CHO-K1 cells [4]
  BI (binucleated cells): 448
  MNC1 (micronucleated cell rate): 28 ‰
  MNC-M (mean of micronucleated cell rates): 30 ± 2.8 ‰
  MONO (mononucleated cells): 52

Where two headings read alike, the source gives them in different places.
